The values that follow come from patent US20250051346A1 (priority 2021, published 2025).

The chains behind the UniProt entries cited, without tags or fusion partners. Residues count along the entry.
UniProt P28335, whole entry I156V/N158S/I160V, looked up: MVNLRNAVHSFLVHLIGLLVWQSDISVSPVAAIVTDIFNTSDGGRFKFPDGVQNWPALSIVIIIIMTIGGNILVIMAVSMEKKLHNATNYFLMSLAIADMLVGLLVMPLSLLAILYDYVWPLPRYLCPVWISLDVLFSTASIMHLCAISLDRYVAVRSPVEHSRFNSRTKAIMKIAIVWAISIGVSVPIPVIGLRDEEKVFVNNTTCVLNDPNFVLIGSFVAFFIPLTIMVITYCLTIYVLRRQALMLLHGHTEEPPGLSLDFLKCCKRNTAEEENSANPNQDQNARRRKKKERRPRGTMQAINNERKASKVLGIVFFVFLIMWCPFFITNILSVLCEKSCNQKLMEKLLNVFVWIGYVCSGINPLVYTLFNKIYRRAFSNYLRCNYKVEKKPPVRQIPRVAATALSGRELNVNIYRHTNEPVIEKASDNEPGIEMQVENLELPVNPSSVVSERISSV
UniProt P28335, 33-458 I156V/N158S/I160V limits assumed: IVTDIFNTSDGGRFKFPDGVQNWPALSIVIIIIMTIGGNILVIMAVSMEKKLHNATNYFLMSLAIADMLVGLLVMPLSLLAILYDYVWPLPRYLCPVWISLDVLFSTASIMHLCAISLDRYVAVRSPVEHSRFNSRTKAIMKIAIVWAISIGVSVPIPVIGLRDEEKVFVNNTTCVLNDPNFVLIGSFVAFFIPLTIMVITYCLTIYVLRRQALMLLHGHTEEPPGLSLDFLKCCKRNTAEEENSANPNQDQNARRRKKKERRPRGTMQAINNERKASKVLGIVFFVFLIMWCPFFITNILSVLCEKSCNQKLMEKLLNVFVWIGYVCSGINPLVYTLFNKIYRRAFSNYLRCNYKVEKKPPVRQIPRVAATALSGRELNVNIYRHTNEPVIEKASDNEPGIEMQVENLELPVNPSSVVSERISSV

The structures appear in SMILES notation. Like-named read-outs stand apart in the source and are kept apart here.

Experiment [1] deals with human recombinant 5-HT2C edited receptor (accession number AAF35842.1) (Homo sapiens, UniProt P28335, I156V/N158S/I160V). The experiment is described as follows: Serotonin 5-HT2C in vitro cellular IPOne agonism assay. The settings on record: read-out: 5HT2C IPONE AGONISM ACTIVITY, CHO-K1 cells, 60 min.
Experiment [2] has as its target 5-HT2C edited (accession number AAF35842.1) (Homo sapiens, UniProt P28335, I156V/I160V/N158S). As to the kind of experiment: Serotonin 5-HT2C in vitro radioligand binding competition assay. The settings on record: read-out: 5HT2C RADIOLIGAND BINIDNG ACTIVITY, [3H]-DOI radiotracer, membrane extracts.

As to `CN1CCCc2oc3cc(OC(F)(F)F)ccc3c2C1` [Compound 53, 2-methyl-8-(trifluoromethoxy)-2,3,4,5-tetrahydro-1H-benzofuro[3,2-c]azepine], the EC50 in experiment [1] (benzofurans) is above 10 µM. In experiment [2] (benzofurans), the IC50 lay in the range of 1 to 10 µM.
On the same counts, the results for `CN1CCc2oc3cc(C(F)(F)F)ccc3c2CC1` [Compound 39, 3-methyl-8-(trifluoromethyl)-2,3,4,5-tetrahydro-1H-benzofuro[2,3-d]azepine] are 1 to 10 µM and 1 to 10 µM.
The matching figures for `FC(F)(F)CN1CCc2oc3ccccc3c2CC1` [Compound 29, 3-(2,2,2-trifluoroethyl)-2,3,4,5-tetrahydro-1H-benzofuro[2,3-d]azepine]: above 10 µM and above 10 µM.
With `COc1cccc2oc3c(c12)CCN(C1CCC1)CC3` [Compound 15, 3-cyclobutyl-10-methoxy-2,3,4,5-tetrahydro-1H-benzofuro[2,3-d]azepine], the EC50 in experiment [1] (benzofurans) fell in the range of 0.101 to 1 µM. Moreover, the IC50 in experiment [2] (benzofurans) is 0.101 to 1 µM.
On to `Fc1cccc2oc3c(c12)CCN(C1CCC1)CC3` [Compound 2, 3-cyclobutyl-10-fluoro-2,3,4,5-tetrahydro-1H-benzofuro[2,3-d]azepine], for which, in experiment [1] (benzofurans), the EC50 fell in the range of 1 to 10 µM. The IC50 in experiment [2] (benzofurans) lay within 1 to 10 µM.
As for `Oc1ccc2c3c(sc2c1)CCNCC3` [Compound 80, 2,3,4,5-tetrahydro-1H-benzo[4,5]thieno[2,3-d]azepin-8-ol], the EC50 in experiment [1] (benzothiophenes) was 0.01 to 0.1 µM. Besides, in experiment [2] (benzothiophenes), the IC50 was 0.01 to 0.1 µM.
For `CN1CCc2sc3ccccc3c2CC1` [Compound 72, 3-methyl-2,3,4,5-tetrahydro-1H-benzo[4,5]thieno[2,3-d]azepine], in experiment [1] (benzothiophenes), the EC50 is below 0.01 µM. For the same compound, in experiment [2] (benzothiophenes), the IC50 was below 0.01 µM.
On to `c1ccc(COc2ccc3c4c(sc3c2)CCNCC4)cc1` [Compound 77, 8-(benzyloxy)-2,3,4,5-tetrahydro-1H-benzo[4,5]thieno[2,3-d]azepine], for which, in experiment [1] (benzothiophenes), the EC50 is 1 to 10 µM. Besides, in experiment [2] (benzothiophenes), the IC50 is 1 to 10 µM.
For the compound `Fc1cccc2oc3c(c12)CCN(CC(F)(F)F)CC3` [Compound 8, 10-fluoro-3-(2,2,2-trifluoroethyl)-2,3,4,5-tetrahydro-1H-benzofuro[2,3-d]azepine], the EC50 in experiment [1] (benzofurans) was above 10 µM. The IC50 in experiment [2] (benzofurans) was above 10 µM.
Consider `Fc1ccc2c3c(sc2c1)CCN(CC(F)(F)F)CC3` [Compound 71, 8-fluoro-3-(2,2,2-trifluoroethyl)-2,3,4,5-tetrahydro-1H-benzo[4,5]thieno[2,3-d]azepine], for which, in experiment [1] (benzothiophenes), the EC50 is 0.101 to 1 µM. In experiment [2] (benzothiophenes), the IC50 is above 10 µM.
As to `CN1CCCc2oc3cc(C(F)(F)F)ccc3c2C1` [Compound 52, 2-methyl-8-(trifluoromethyl)-2,3,4,5-tetrahydro-1H-benzofuro[3,2-c]azepine], the EC50 in experiment [1] (benzofurans) was above 10 µM. Moreover, in experiment [2] (benzofurans), the IC50 lay in the range of 1 to 10 µM.
Take `CN1CCCc2oc3cc(F)ccc3c2C1` [Compound 9, 8-fluoro-2-methyl-2,3,4,5-tetrahydro-1H-benzofuro[3,2-c]azepine]: in experiment [1] (benzofurans), the EC50 is 1 to 10 µM. For the same compound, the IC50 in experiment [2] (benzofurans) lay within 1 to 10 µM.
Regarding `COc1ccc2c3c(sc2c1)CCN(CC(F)(F)F)CC3` [Compound 70, 8-methoxy-3-(2,2,2-trifluoroethyl)-2,3,4,5-tetrahydro-1H-benzo[4,5]thieno[2,3-d]azepine], the EC50 in experiment [1] (benzothiophenes) lay within 1 to 10 µM. Besides, the IC50 in experiment [2] (benzothiophenes) is 1 to 10 µM.
Turning to `COc1ccc2c3c(oc2c1)CCCN(CC(F)(F)F)C3` [Compound 11, 8-methoxy-2-(2,2,2-trifluoroethyl)-2,3,4,5-tetrahydro-1H-benzofuro[3,2-c]azepine], the EC50 in experiment [1] (benzofurans) is above 10 µM. For the same compound, the IC50 in experiment [2] (benzofurans) is above 10 µM.
Regarding `FC(F)(F)CN1CCCc2oc3ccccc3c2C1` [Compound 13, 2-(2,2,2-trifluoroethyl)-2,3,4,5-tetrahydro-1H-benzofuro[3,2-c]azepine], in experiment [1] (benzofurans), the EC50 is above 10 µM. In addition, the IC50 in experiment [2] (benzofurans) is above 10 µM.
With `c1ccc(COc2ccc3c4c(sc3c2)CCN(C2CCC2)CC4)cc1` [Compound 78, 8-(benzyloxy)-3-cyclobutyl-2,3,4,5-tetrahydro-1H-benzo[4,5]thieno[2,3-d]azepine], the EC50 in experiment [1] (benzothiophenes) is above 10 µM. Further, in experiment [2] (benzothiophenes), the IC50 lay within 1 to 10 µM.
As to `c1ccc2c3c(oc2c1)CCCNC3` [Compound 22, 2,3,4,5-tetrahydro-1H-benzofuro[3,2-c]azepine], in experiment [1] (benzofurans), the EC50 was 1 to 10 µM. In addition, in experiment [2] (benzofurans), the IC50 fell in the range of 1 to 10 µM.
With `COc1ccc2c3c(oc2c1)CCCN(C1CCC1)C3` [Compound 12, 2-cyclobutyl-8-methoxy-2,3,4,5-tetrahydro-1H-benzofuro[3,2-c]azepine], the EC50 in experiment [1] (benzofurans) is above 10 µM. Further, the IC50 in experiment [2] (benzofurans) was above 10 µM.
Regarding `COc1ccc2c3c(sc2c1)CCN(C1CCC1)CC3` [Compound 74, 3-cyclobutyl-8-methoxy-2,3,4,5-tetrahydro-1H-benzo[4,5]thieno[2,3-d]azepine], the EC50 in experiment [1] (benzothiophenes) is 0.101 to 1 µM. For the same compound, the IC50 in experiment [2] (benzothiophenes) lay in the range of 1 to 10 µM.
As for `COc1ccc2c3c(oc2c1)CCNCC3` [Compound 27, 8-methoxy-2,3,4,5-tetrahydro-1H-benzofuro[2,3-d]azepine], the EC50 in experiment [1] (benzofurans) was 0.101 to 1 µM. Further, the IC50 in experiment [2] (benzofurans) is 0.101 to 1 µM.
Regarding `COc1cccc2oc3c(c12)CNCCC3` [Compound 18, 10-methoxy-2,3,4,5-tetrahydro-1H-benzofuro[3,2-c]azepine], in experiment [1] (benzofurans), the EC50 is 0.101 to 1 µM. The IC50 in experiment [2] (benzofurans) was in the range of 0.101 to 1 µM.
In the case of `c1ccc(COc2cccc3oc4c(c23)CNCCC4)cc1` [Compound 51, 10-(benzyloxy)-2,3,4,5-tetrahydro-1H-benzofuro[3,2-c]azepine], in experiment [1] (benzofurans), the EC50 is above 10 µM. Besides, the IC50 in experiment [2] (benzofurans) lay in the range of 1 to 10 µM.
On the same counts, the results for `CN1CCc2oc3ccccc3c2CC1` [Compound 30, 3-methyl-2,3,4,5-tetrahydro-1H-benzofuro[2,3-d]azepine] are 0.01 to 0.1 µM and 0.01 to 0.1 µM.
Take `CN1CCc2sc3cc(F)ccc3c2CC1` [Compound 33, 8-fluoro-3-methyl-2,3,4,5-tetrahydro-1H-benzo[4,5]thieno[2,3-d]azepine]: the EC50 in experiment [1] (benzothiophenes) is below 0.01 µM. Further, the IC50 in experiment [2] (benzothiophenes) was below 0.01 µM.
As for `CN1CCCc2oc3cccc(OCc4ccccc4)c3c2C1` [Compound 55, 10-(benzyloxy)-2-methyl-2,3,4,5-tetrahydro-1H-benzofuro[3,2-c]azepine], the EC50 in experiment [1] (benzofurans) was above 10 µM. The IC50 in experiment [2] (benzofurans) lay in the range of 0.01 to 0.1 µM.
On the same counts, the results for `CN1CCc2oc3cc(F)ccc3c2CC1` [Compound 23, 8-fluoro-3-methyl-2,3,4,5-tetrahydro-1H-benzofuro[2,3-d]azepine] are 0.01 to 0.1 µM and 0.01 to 0.1 µM.
